The values that follow are results of earlier work, collected in paper PMC11266601.

One data set addresses p67phox (Homo sapiens) (UniProt P19878). Conditions: cited from earlier work.
A further data set has as its target Rac1 (Homo sapiens) (UniProt P63000). The note with it: cited from earlier work.

With Rac1 (from UniProt P63000), the dissociation constant (Kd) in the data set with p67phox (Homo sapiens) was 1700 nM.

Regarding MARTXVc RID RID (from UniProt Q9KS12), the equilibrium dissociation constant (Kd) with Rac1 (Homo sapiens) is 4 µM.
